The molecules below were run against PI3Kdelta (Homo sapiens (Human), UniProt O00329) (assay: HTRF PI3K biochemical assay, delta isoform). Settings: 0.3 nM enzyme, 100 uM ATP, 5 uM PIP2, form screened: Neutral.
Text: HTRF PI3K Biochemical Assay to Measure Intrinsic Potency of Compound Inhibitors
The PI3-Kinase biochemical assays were developed to measure the intrinsic potency and compound dependent inhibition of the alpha, beta, delta, and gamma PI3K isoform enzymes.
This assay was developed and further optimized from a kit produced by Upstate (Millipore catalog #33-047) and has been configured for HTS (high throughput screening) and SAR screening. Briefly, this procedure exploits the exquisite specificity and high affinity binding of enzyme reaction substrate phosphatidyl(3,4,5)triphosphate (PIP3) to the GRP1 pleckstrin homology (PH) domain to generate the signal. In the absence of PIP3, an HTRF (Homogeneous Time-Resolved Fluorescence energy transfer) complex is formed consisting of europium (Eu)-labeled anti-GST, GSTtagged GRP1-PH domain, biotin-PIP3 and streptavidin conjugated APC. The native PIP3 produced by PI3-Kinase activity disrupts in a competitive manner the biotin-PIP3 from the PH domain, resulting in the loss of energy transfer (HTRF complex) and a decrease in the signal. The format of this assay is the same for all 4 isoforms of PI3K; the differences lie in the concentration of enzyme used to achieve robust assay window. The alpha, beta, and delta assays are run at 0.5, 1, and 0.3 nM enzymes and the gamma assay is run at 5 nM enzyme. The ATP concentration is 100 uM in the alpha, beta, and delta assays and 50 uM ATP in the gamma assay. All reactions are run at 5 uM PIP2.
Compounds are serially diluted (3-fold in 100% DMSO) across a 384-well polypropylene source plated from column 3 to column 12 and column 13 to column 22, to yield 10 concentration dose response for each test compound. Columns 1, 2, 23 and 24 contain either only DMSO or pharmacological known control inhibitor. Once titrations are made, 2.5 nL of the compounds on 384 well plates are reformatted and transferred by acoustic dispense in quadruplicates to a 1536 assay plate (Greiner) to assay across all four PI3K isoform enzymes.
The PI3-Kinase biochemical assay was optimized using the HTRF kit provided by Upstate (Millipore). The assay kit contains six reagents: 1) 4× Reaction Buffer; 2) native PIP2 (substrate); 3) Stop (EDTA); 4) Detection Mix A (Streptavidin-APC); 5) Detection Mix B (Eu-labeled Anti-GST plus GST-tagged PH-domain); 6) Detection Mix C. In addition, the following items were obtained or purchased; PI3Kinase (alpha 14-602, beta 14-603, gamma 14-558 and delta 14-604 from Upstate; Millipore), dithiothreitol (Sigma, D-5545), Adenosine-5′ triphosphate (InVitrogen, Cat#AS001A), native PIP3 (PI(3,4,5)P3, diC8, H^+, CELLSIGNALS, INC. Cat #907) DMSO (Sigma, 472301).
PI3Kinase Reaction Buffer is prepared by dilution the stock 1:4 with de-ionized water. DTT, PIP2 and Biotin-PIP3 were added to 1536 assay plate at a final concentration of 5 mM, […] on the day of use. Enzyme addition and compound pre-incubation are initiated by the addition of 1.25 ul of PI3K (at twice its final concentration) in the 1× reaction buffer to all wells using a BioRaptor. Plates are incubated at RT for 15 minutes. Reactions are initiated by addition of 1.25 ul of 2× substrate solution (PIP2 and ATP in 1× reaction buffer) using BioRaptor. Plates are incubated in humidified chamber at RT for one hour. Reactions are quenched by addition of 0.625 uL of stop solution to all wells using the BioRaptor. The quenched reactions are then processed to detect product formation by adding 0.625 uL of Detection Solution to all wells using the BioRaptor (Detection mix C, Detection Mix A, and Detection Mix B combined together in an 18:1:1 ratio prepared 2 hours prior to use). Following a one hour incubation in the dark, the HTRF signal is measured on the Envision plate reader set for 330 nm excitation and dual emission detection at […]. […]

Amino acid sequences for entries named in this document (tags omitted). A change or cut given only in a name is not applied to a line headed by its entry.
UniProt O00329: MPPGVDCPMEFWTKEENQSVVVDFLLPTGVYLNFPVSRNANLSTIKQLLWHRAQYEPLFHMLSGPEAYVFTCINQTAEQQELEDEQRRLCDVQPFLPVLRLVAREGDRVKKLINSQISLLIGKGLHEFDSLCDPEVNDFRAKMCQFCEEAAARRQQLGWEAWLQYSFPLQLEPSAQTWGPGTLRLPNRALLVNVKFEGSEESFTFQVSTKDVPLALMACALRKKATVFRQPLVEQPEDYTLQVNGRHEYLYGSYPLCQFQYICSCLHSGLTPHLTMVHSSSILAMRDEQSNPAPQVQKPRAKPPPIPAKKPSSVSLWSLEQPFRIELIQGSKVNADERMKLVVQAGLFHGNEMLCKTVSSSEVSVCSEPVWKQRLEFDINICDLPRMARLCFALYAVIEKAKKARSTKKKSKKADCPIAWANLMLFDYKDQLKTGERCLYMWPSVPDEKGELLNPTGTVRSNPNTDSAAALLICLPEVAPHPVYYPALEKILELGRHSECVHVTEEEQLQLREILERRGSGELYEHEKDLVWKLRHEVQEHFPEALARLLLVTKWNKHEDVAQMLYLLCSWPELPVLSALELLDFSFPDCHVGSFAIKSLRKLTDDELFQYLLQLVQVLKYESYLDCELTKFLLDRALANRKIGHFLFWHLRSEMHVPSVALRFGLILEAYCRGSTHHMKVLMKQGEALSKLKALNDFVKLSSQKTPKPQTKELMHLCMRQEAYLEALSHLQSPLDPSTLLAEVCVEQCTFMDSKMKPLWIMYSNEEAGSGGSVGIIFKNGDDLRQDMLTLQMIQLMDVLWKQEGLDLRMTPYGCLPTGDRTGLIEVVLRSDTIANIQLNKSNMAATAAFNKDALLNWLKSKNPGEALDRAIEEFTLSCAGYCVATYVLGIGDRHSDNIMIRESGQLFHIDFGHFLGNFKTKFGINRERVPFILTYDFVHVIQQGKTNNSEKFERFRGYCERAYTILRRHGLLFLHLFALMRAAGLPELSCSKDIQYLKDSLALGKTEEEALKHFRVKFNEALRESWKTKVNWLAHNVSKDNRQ

| SMILES | IC50 [nM] |
| --- | --- |
| CCC(Nc1ncnc2c1nc(-c1cnn(CC)c1C)n2C)C(=O)N1CCOCC1 (single isomer, unassigned) [Compound 1-6, (R or S)-8-(1-ethyl-5-methyl-1H-pyrazol-4-yl)-9-methyl-N-[1-(morpholin-4-ylcarbonyl)propyl]-9H-purin-6-amine] | 5.2 |
| CCC(Nc1ncnc2c1nc(-c1cnn(CC)c1C)n2C)C(=O)N1C[C@@H](C)O[C@@H](C)C1 (mixture of isomers) [Compound 1-4, (R and S)-N-(1-{[(cis)-2,6-dimethylmorpholin-4-yl]carbonyl}propyl)-8-(1-ethyl-5-methyl-1H-pyrazol-4-yl)-9-methyl-9H-purin-6-amine] | 4 |
| CCC(Nc1ncnc2c1nc(-c1cnn(CC)c1C)n2C)C(=O)N1CCC1 (racemic) [Compound 1-3, (R and S)-N-[1-(azetidin-1-ylcarbonyl)propyl]-8-(1-ethyl-5-methyl-1H-pyrazol-4-yl)-9-methyl-9H-purin-6-amine] | 26 |

Results, then the molecule that gave them:

| IC50 [nM] | SMILES |
| --- | --- |
| 22 | CC[C@H](Nc1ncnc2c1nc(-c1cnc(C)nc1)n2CC)C(=O)N1CCOC(C2CC2)C1 (mixture of isomers) [Compound 2-28, N-{(1S)-1-[((S and R)-2-cyclopropylmorpholin-4-yl)carbonyl]propyl}-9-ethyl-8-(2-methylpyrimidin-5-yl)-9H-purin-6-amine] |
| 50 | CC[C@H](Nc1ncnc2c1nc(-c1cnc(C)nc1)n2CC)C(=O)N1CCC(OC)C1 (mixture of isomers) [Compound 2-19, 9-ethyl-N-{(1S)-1-[((S and R)-3-methoxypyrrolidin-1-yl)carbonyl]propyl}-8-(2-methylpyrimidin-5-yl)-9H-purin-6-amine] |
| 17 | CC[C@H](Nc1ncnc2c1nc(-c1cnc(C)nc1)n2CC)C(=O)N1CCCC1C1CC1 (mixture of isomers) [Compound 2-22, N-{(1S)-1-[((R and S)-2-cyclopropylpyrrolidin-1-yl)carbonyl]propyl}-9-ethyl-8-(2-methylpyrimidin-5-yl)-9H-purin-6-amine] |
| 19 | CC[C@H](Nc1ncnc2c1nc(-c1cnc(C)nc1)n2CC)C(=O)N1CCOCC1C1CC1 (mixture of isomers) [Compound 2-30, N-{(1S)-1-[((S and R)-3-cyclopropylmorpholin-4-yl)carbonyl]propyl}-9-ethyl-8-(2-methylpyrimidin-5-yl)-9H-purin-6-amine] |
| 10 | CC[C@H](Nc1ncnc2c1nc(-c1cnc(C)nc1)n2CC)C(=O)N1CCN2CCCC2C1 (mixture of isomers) [Compound 2-38, 9-ethyl-N-[(1S)-1-(S and R)-(hexahydropyrrolo[1,2-a]pyrazin-2(1H)-ylcarbonyl)propyl]-8-(2-methylpyrimidin-5-yl)-9H-purin-6-amine] |

Reference: US10221178B2, “Purine inhibitors of human phosphatidylinositol 3-kinase delta” (MERCK SHARP & DOHME CORP., priority 2015, dated 2019)
